Earlier results in article PMC12053642, “Oral PRI-002 treatment in patients with MCI or mild AD: a randomized, double-blind phase 1b trial” (Nature Communications, 2025).

Test system: early AD patients
Details: over 18 months, on average; cited from earlier work
Excerpt: After two decades of setbacks, the United States Food and Drug Administration (USFDA) full approvals for lecanemab[1] and donanemab[2] presents the beginning of a new decade for AD patients with several more drug candidates holding promise for marketing authorisation in the foreseeable future.

aducanumab: anti-amyloid therapeutic antibody, targets Aβ oligomers and Aβ plaques [reference compound]
deceleration of progression measured by CDR-SB versus placebo: up to 36%
